Sequences of proteins named here, by UniProt entry; tags and fusion partners are left off.
UniProt Q9UBF8, whole entry: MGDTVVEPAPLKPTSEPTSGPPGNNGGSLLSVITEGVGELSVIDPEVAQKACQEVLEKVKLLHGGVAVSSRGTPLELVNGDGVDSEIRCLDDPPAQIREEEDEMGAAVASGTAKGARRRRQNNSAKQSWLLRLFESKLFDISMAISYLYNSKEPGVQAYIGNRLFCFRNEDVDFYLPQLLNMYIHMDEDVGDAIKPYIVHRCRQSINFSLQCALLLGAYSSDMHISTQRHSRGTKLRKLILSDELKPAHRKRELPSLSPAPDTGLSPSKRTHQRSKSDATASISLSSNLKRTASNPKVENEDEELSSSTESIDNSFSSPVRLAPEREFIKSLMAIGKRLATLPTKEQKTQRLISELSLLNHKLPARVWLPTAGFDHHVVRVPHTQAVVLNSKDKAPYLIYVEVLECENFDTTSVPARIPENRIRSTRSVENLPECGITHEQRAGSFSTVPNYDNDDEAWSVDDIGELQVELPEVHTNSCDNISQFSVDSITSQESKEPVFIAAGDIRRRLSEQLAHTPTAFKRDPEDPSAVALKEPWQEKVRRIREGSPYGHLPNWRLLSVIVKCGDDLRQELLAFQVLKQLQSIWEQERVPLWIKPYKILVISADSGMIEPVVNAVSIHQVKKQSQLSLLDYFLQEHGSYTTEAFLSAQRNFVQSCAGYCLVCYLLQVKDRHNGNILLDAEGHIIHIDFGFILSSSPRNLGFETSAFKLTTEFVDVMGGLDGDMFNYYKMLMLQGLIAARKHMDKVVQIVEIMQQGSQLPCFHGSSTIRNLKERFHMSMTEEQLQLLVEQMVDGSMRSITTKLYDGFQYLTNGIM

According to EP4837901A1, “PHENYLTHIAZOLAMINE-BASED PI4KIIIß INHIBITOR, PREPARATION METHOD THEREFOR, PHARMACEUTICAL COMPOSITION THEREOF AND USE THEREOF” (dated 2026):

Legend:
PI4KIIIβ = PI4KIIIβ (Homo sapiens, UniProt Q9UBF8); assay: PI4KIIIβ inhibition assay (ADP-Glo Luminescent Kinase Assay); conditions: read-out: PI4KIIIβ inhibitory activity (IC50); 50 µM PIP2, 25 µM ATP, room temperature 1 h
A549 = assay: Anti-proliferative activity, CCK 8 assay; conditions: read-out: Anti-proliferative activity (IC50, µM) A549; A549, 48 h incubation
DU145 = assay: Anti-proliferative activity, CCK 8 assay; conditions: read-out: Anti-proliferative activity (IC50, µM) DU145; DU145, 48 h incubation
H446 = assay: Anti-proliferative activity, CCK 8 assay; conditions: read-out: Anti-proliferative activity (IC50, µM) H446; H446, 48 h incubation
HCT116 = assay: Anti-proliferative activity, CCK 8 assay; conditions: read-out: Anti-proliferative activity (IC50, µM) HCT116; HCT116, 48 h incubation
HT29 = assay: Anti-proliferative activity, CCK 8 assay; conditions: read-out: Anti-proliferative activity (IC50, µM) HT29; HT29, 48 h incubation
MCF-7 = assay: Anti-proliferative activity, CCK 8 assay; conditions: read-out: Anti-proliferative activity (IC50, µM) MCF-7; MCF-7, 48 h incubation
MDA-MB-231 = assay: Anti-proliferative activity, CCK 8 assay; conditions: read-out: Anti-proliferative activity (IC50, µM) MDA-MB-231; MDA-MB-231, 48 h incubation
PC3 = assay: Anti-proliferative activity, CCK 8 assay; conditions: read-out: Anti-proliferative activity (IC50, µM) PC3; PC3, 48 h incubation
[1] = tested on: human small cell lung cancer cell line H446; assay: Anti-tumor efficacy in H446 xenograft model in nude mice; conditions: for tumor growth inhibition (TGI): every two days, H446 xenograft nude mice; for inhibitory effect against the growth of human lung cancer H446 xenografts in nude mice: result in words
[2] = Structural stability under acidic conditions
various tumor cell lines = conditions: panel of 8 cell lines

SMILES	IC50 (PI4KIIIβ)	IC50 (A549)	IC50 (DU145)	IC50 (H446)	IC50 (HCT116)	IC50 (HT29)	IC50 (MCF-7)	IC50 (MDA-MB-231)	IC50 (PC3)	structural stability under acidic conditions [2]	tumor growth inhibition (TGI) ([1]; 30 mg/kg, injection)	tumor growth inhibition (TGI) ([1]; oral dose of 150 mg/kg)	inhibitory effect against the growth of human lung cancer H446 xenografts in nude mice [1]	cell lines with nanomolar-level inhibitory activity (various tumor cell lines)	tumor growth inhibition (TGI) ([1]; 20 mg/kg, injection)
CCCCCC(=O)Nc1nc(C)c(-c2ccc(OC)c(S(=O)(=O)NCc3ccc(F)cc3F)c2)s1												42.2%	significant inhibitory effect		
Cc1nc(NC(=O)CC(C)C)sc1-c1ccc(Cl)c(S(=O)(=O)NCCNC(=O)OC(C)(C)C)c1	0.089 µM	0.92 µM	0.48 µM	0.071 µM	0.53 µM	0.094 µM	0.86 µM	0.77 µM	0.37 µM						
CCCCCC(=O)Nc1nc(C)c(-c2ccc(OC)c(S(=O)(=O)NCc3ccc(F)c(Cl)c3)c2)s1							0.19 µM		0.19 µM						
CCCCCC(=O)Nc1nc(C)c(-c2ccc(OC)c(S(=O)(=O)NCC(C)(C)O)c2)s1	0.0049 µM	> 4 µM	> 4 µM	> 4 µM	> 4 µM	> 4 µM	> 4 µM	> 4 µM	> 4 µM						
CCCCCC(=O)Nc1nc(C)c(-c2ccc(OC)c(S(=O)(=O)NCCNC(=O)OC(C)(C)C)c2)s1										structural instability	37.1%		significant inhibitory effect	6 out of 8	25.7%
COc1ccc(-c2sc(NC(C)=O)nc2C)cc1S(=O)(=O)Nc1ccc(F)cc1F	0.015 µM	> 4 µM	> 4 µM	> 4 µM	> 4 µM	> 4 µM	> 4 µM	> 4 µM	> 4 µM						

The next lines start with results.

IC50 (PI4KIIIβ)	IC50 (A549)	IC50 (DU145)	IC50 (H446)	IC50 (HCT116)	IC50 (HT29)	IC50 (MCF-7)	IC50 (MDA-MB-231)	IC50 (PC3)	structural stability under acidic conditions [2]	SMILES	tumor growth inhibition (TGI) ([1]; 30 mg/kg, injection)	tumor growth inhibition (TGI) ([1]; oral dose of 150 mg/kg)	inhibitory effect against the growth of human lung cancer H446 xenografts in nude mice [1]	cell lines with nanomolar-level inhibitory activity (various tumor cell lines)	tumor growth inhibition (TGI) ([1]; 20 mg/kg, injection)
0.038 µM										CC(=O)Nc1nc(C)c(-c2ccc(Cl)c(S(=O)(=O)Nc3ccc(C)c(O)c3)c2)s1					
> 0.5 µM	> 4 µM	> 4 µM	> 4 µM	> 4 µM	> 4 µM	> 4 µM	> 4 µM	> 4 µM		CCCCCC(=O)Nc1nc(-c2ccc(OC)c(S(=O)(=O)NCc3ccc(F)cc3F)c2)c(C)s1					
									structural instability	COc1ccc(-c2sc(NC(=O)CCCCC(C)=O)nc2C)cc1S(=O)(=O)NCCNC(=O)OC(C)(C)C	30.2%				
	> 4 µM	> 4 µM	0.68 µM	3.73 µM	1.94 µM	3.3 µM	3.12 µM	3.53 µM		CC(=O)Nc1nc(C)c(-c2ccc(Cl)c(S(=O)(=O)NCCO)c2)s1					
